## Ab-14 heavy chain CDR variants: yeast mating affinities

Data: MIT Lincoln Laboratory AlphaSeq set, Li et al. 2023, doi:10.1038/s41467-023-39022-2, as distributed in FLAb.

The target is the same throughout: PDVDLGDISGINAS, from the HR2 region of SARS-CoV-2 spike.

Each scFv is VH, a 15-residue (Gly4Ser)3 linker, VL, as in the parent Ab-14, and differs from it in the CDRs of the heavy chain only.
VH: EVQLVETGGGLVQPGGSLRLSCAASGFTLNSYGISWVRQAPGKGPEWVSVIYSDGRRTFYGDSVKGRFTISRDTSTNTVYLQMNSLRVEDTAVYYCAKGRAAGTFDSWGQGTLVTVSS
VL: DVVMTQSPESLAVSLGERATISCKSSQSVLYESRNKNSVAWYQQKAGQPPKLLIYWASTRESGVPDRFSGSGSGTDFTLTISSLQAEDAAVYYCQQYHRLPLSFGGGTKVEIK

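The parent was found by panning a naive human phage display library on the peptide. These sequences belong to a second round, designed from the earlier measurements on random variants of the parent. Several design methods are mixed in this list. The assay is AlphaSeq: two haploid yeast populations carry antibody and antigen on their surface. After mating in shaken culture at 30 °C for 16 h, diploids were selected and their barcode pairs sequenced. The ratio of observed to expected reads was calibrated, replicate by replicate, on BCL2-family standards whose Kd was known from biolayer interferometry. The assay was run in six technical replicates.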

The parent's heavy chain CDRs are GFTLNSYGIS, VIYSDGRRTFYGDSVK, GRAAGTFDS; each variant's own CDRs replace them letter for letter.
Variants here have more than six changes.
Values are apparent Kd, the geometric mean of the replicates that gave a signal; lower means stronger binding.
A pair that was not seen in any replicate is written "not detected"; this usually means weak binding, but a binder can also be missed.
A sequence measured in both rounds can read differently, since the two assays cover different ranges.

CDR-H1	CDR-H2	CDR-H3	apparent Kd	seen in
GFDLDEYGIS	VIYADGMRTAYADSVK	GNTAGTFDI	2.1 nM	6 of 6
GFDLNEYGIS	VIYADGMRTAYVDSVK	GANAGTFDV	160 pM	6 of 6
GFKLDEYGIS	VIYADGIRTVYADDVK	GLLKGHTLT	1.2 µM	1 of 6
GFDLDEYGIS	VIYADGRRTAYADDVK	GNVAGTFDQ	550 pM	6 of 6
GFQIDEYGIS	VIYADGMRSFYKNSVK	NGMNVSGIV	not detected	0 of 6
GFDLDEYGIS	VIYADGSRTAYSDSVK	GEVAGTFDL	1.0 nM	6 of 6
GFDLDEYGIS	VIYADGKRTAYADSVK	GQNAGTFDV	1.7 nM	6 of 6
GFDLNEYGIS	VIYADGKRTAYSDSVK	GNVAGTFDM	210 pM	6 of 6
GFDLNEYGIS	VIYADGRRKFYADSVK	GQNAGTFDV	7.0 nM	6 of 6
GFDLNEYGIS	VIYADGRRTAYSDSVK	GSNAGTFDV	400 pM	6 of 6
GFNLDEYGIS	VIYADGRRTFYADSVK	GSTAGTFDT	62 pM	6 of 6
GFDLDEYGIS	VIYADGRRTAYSDSVK	GNQAGTFDI	58 nM	5 of 6
GFDLNEYGIS	VIYADGRRTAYSDSVK	GETAGTFDL	830 pM	6 of 6
GYDMEDYGIS	VIYADGSRAAYGDNFK	GELAGTFDM	700 pM	2 of 6
GFNLDEYGIS	VIYADGVRTKYINNVK	GVLQDLQMG	not detected	0 of 6
GFSLDEYGIS	VIYADGRRTMYCDNFK	GELGCTFKI	not detected	0 of 6
GFDLDEYGIS	VIYADGVREAYIDSVK	GNWSGTMMY	not detected	0 of 6
GFDLNEYGIS	VIYADGRRTAYTDSVK	GTAAGTFDL	280 pM	6 of 6
GFDLDEYGIS	VIYADGVRTAYADSVK	GNEAGTFDL	170 pM	6 of 6
GFDLNEYGIS	VIYADGRRTFYADSVK	GEIAGTFNS	370 pM	6 of 6
GFDIEEFGIS	VIYADGRQVAYAQKVK	GTIAGTFVD	40 nM	6 of 6
GFDLNEYGIS	VIYADGVRTFYTDDVK	GEVAGTFDL	310 pM	6 of 6
GFDLNEYGIS	VIYADGRRTQYADSVK	GNEAGTFDV	740 pM	6 of 6
GFDLNEQGIS	VIYADGVRTEYQNRVK	GQIDGLFTF	not detected	0 of 6
GFDLNEYGIS	VIYADGSRTAYADSVK	GQVAGTFDL	470 pM	6 of 6
GFDLNEYGIS	VIYADGMRTFYADNVK	GENAGTFDV	890 pM	6 of 6
EFDLNNYGIS	VIYADGLRTAYETSFK	GINAGTFDS	21 nM	4 of 6
GFDLDEYGIS	VIYADGMRTFYSDSVK	GNVAGTFDV	410 pM	6 of 6
GFDLNEYGIS	VIYADGRRTFYADSVK	GEIAGTFTF	4.3 nM	6 of 6
GFDLNEYGIS	VIYADGQRTFYADSVK	GTNGGTFDV	860 pM	6 of 6
GFDLTEYGIS	VIYADGVRTHYADNVK	GKSDGTNMA	not detected	0 of 6
GFQLDEYGIS	VIYADGERTHYSNDVK	GTIGGTFQQ	not detected	0 of 6
GFDIEEYGIS	VIYADGKRAAYADSVK	GENMDIMTD	not detected	0 of 6
GRDIEEYGIS	VIYADGVRTVYHDSVK	GQVAGFFIT	not detected	0 of 6
GFDLDEYGIS	VIYADGMRTAYTDSVK	GEVAGTFDL	1.5 nM	6 of 6
GFDLNEYGIS	VIYADGRRTQYIDSVK	GETAGTFDD	420 pM	6 of 6
GDDLEDYGIS	VIYADGRRTAYQESVK	GLYAGYIDV	not detected	0 of 6
GFDLNEYGIS	VIYADGRRTFYADSVK	GENAGTFDL	2.2 nM	6 of 6
GFDLDEYGIS	VIYADGVRTAYADSVK	GNVAGTFDQ	1.2 nM	6 of 6
GFDLDEYGIS	VIYADGMRTAYADDVK	GENAGTFDV	430 pM	6 of 6
GFDINEYGIS	VIYADGFRLAYVQNVK	GEHAGSVEV	not detected	0 of 6
GFDLNEYGIS	VIYADGMRTAYSDSVK	GNVAGTFDV	780 pM	6 of 6
GFDLNEYGIS	VIYADGVRTFYADSVK	GNNAGTFDI	310 pM	6 of 6
GDDLENVGIS	VIYADGKRKQYAQNVK	GHTGGTFFD	49 µM	1 of 6
GFDLNEYGIS	VIYADGMRKAYADSVK	GETAGTFDQ	280 pM	6 of 6
GFNLNEYGIS	VIYADGRRSFYADSVK	GEAAGTFDV	210 pM	6 of 6
GKDIDEYGIS	VIYADGIRTAYNDRVK	GNLGIQFDM	not detected	0 of 6
GEDLEEYGIS	VIYADGMRQYYVNNVK	GDINDVDDL	not detected	0 of 6
GFDLKEQGIS	VIYADGMRTFYTDKVK	GQNSNGFKM	not detected	0 of 6
GFDFNEYGIS	VIYADGKRTAYADKVK	GGKDAFTDI	not detected	0 of 6
GFDLNEYGIS	VIYADGRRTFYSDSVK	GNNAGTFDI	2.4 nM	6 of 6
GFNLNEYGIS	VIYADGMRTFYTDSVK	GETAGTFDM	1.2 nM	6 of 6
GFDLDEYGIS	VIYADGMRTAYADDVK	GNNAGTFDM	190 pM	6 of 6
GFDLNEYGIS	VIYADGRRTAYTDSVK	GNVAGTFDM	370 pM	6 of 6
GEDLNSYGIS	VIYADGLRTVYSDNFK	GNGGGQFDM	not detected	0 of 6
GFDLNEYGIS	VIYADGMRTFYADDVK	GEVAGTFDT	240 pM	6 of 6
GFDLNEYGIS	VIYADGRRTAYSDSVK	GGNAGTFDI	520 pM	6 of 6
GFDLNEYGIS	VIYADGVRTAYADSVK	GEIAGTFDI	400 pM	6 of 6
GFDLNEYGIS	VIYADGVRTAYADSVK	GNQAGTFDI	370 pM	6 of 6
GFDLNEYGIS	VIYADGKRTAYTDSVK	GNEAGTFDV	210 pM	6 of 6
GFDLNEYGIS	VIYADGVRTQYANSVK	NGLRYQNKL	not detected	0 of 6
GFDLEEYGIS	VIYADGQRTAYADSVK	GENAGTFDV	560 pM	6 of 6
GFDLNEYGIS	VIYADGRRTAYADSVK	GKNAGTFLV	3.0 nM	6 of 6
GFNLDEYGIS	VIYADGTRTSYRDNVK	GVTGGHDVT	not detected	0 of 6
GFDLNEYGIS	VIYADGRRTAYIDSVK	GQLAGTFDT	120 pM	6 of 6
GFDLNEYGIS	VIYADGQRTAYADSVK	GKVAGTFDI	690 pM	6 of 6
GFDLNEYGIS	VIYADGRRTSYIDSVK	GEQAGTFDS	2.7 nM	4 of 6
GFDLNEYGIS	VIYADGMRTAYADNVK	GGVAGTFDV	230 pM	6 of 6
GDNLDEYGIS	VIYADGQRTAYDDPVK	GGQTGTVMV	not detected	0 of 6
GFDFQEYGIS	VIYADGMRTNALDNVK	GNIGATFDD	not detected	0 of 6
GFDLNEYGIS	VIYADGVRTYYADDVK	GNVAGTFDV	1.3 nM	6 of 6
GFDLNEYGIS	VIYADGRRTSYKDSVK	GENAGTFDV	1.2 nM	6 of 6
GFDIDEYGIS	VIYADGRRTFYADSVK	GTNAGTFDS	890 pM	6 of 6
GNDLEEYGIS	VIYADGIRTNYHQNVK	GTNGDTFTQ	not detected	0 of 6

The opening 7 entries, copied out:

{"CDR-H1": "GFDLDEYGIS", "CDR-H2": "VIYADGMRTAYADSVK", "CDR-H3": "GNTAGTFDI", "apparent Kd": "2.1 nM", "seen in": "6 of 6"}
{"CDR-H1": "GFDLNEYGIS", "CDR-H2": "VIYADGMRTAYVDSVK", "CDR-H3": "GANAGTFDV", "apparent Kd": "160 pM", "seen in": "6 of 6"}
{"CDR-H1": "GFKLDEYGIS", "CDR-H2": "VIYADGIRTVYADDVK", "CDR-H3": "GLLKGHTLT", "apparent Kd": "1.2 µM", "seen in": "1 of 6"}
{"CDR-H1": "GFDLDEYGIS", "CDR-H2": "VIYADGRRTAYADDVK", "CDR-H3": "GNVAGTFDQ", "apparent Kd": "550 pM", "seen in": "6 of 6"}
{"CDR-H1": "GFQIDEYGIS", "CDR-H2": "VIYADGMRSFYKNSVK", "CDR-H3": "NGMNVSGIV", "apparent Kd": "not detected", "seen in": "0 of 6"}
{"CDR-H1": "GFDLDEYGIS", "CDR-H2": "VIYADGSRTAYSDSVK", "CDR-H3": "GEVAGTFDL", "apparent Kd": "1.0 nM", "seen in": "6 of 6"}
{"CDR-H1": "GFDLDEYGIS", "CDR-H2": "VIYADGKRTAYADSVK", "CDR-H3": "GQNAGTFDV", "apparent Kd": "1.7 nM", "seen in": "6 of 6"}

The parent sequence was in this pool as ten entries: three were never detected, three once, and four in most replicates, with averages from 2.2 nM to 240 nM.
The authors averaged sequences with at least three values out of six and counted those with two or fewer as poor binders.
Nonspecific signal, from three strains lacking the peptide, appeared in 1% of pairings of all heavy chain designs, centred on 120 nM (5% of these signals below 7.0 nM); values are not corrected for it.